From patent publication US10690657B2, “Epithelial tissue model” (Nederlandse Organisatie voor …, priority 2012, dated 2020)
Where two headings read alike, the source gives them in different places.

Tested on: porcine intestinal jejunal tissue
Settings: FD4 50 μM apical, two hour incubation

“fluorescein isothiocyanate-dextran [FD4]” was tested, and the “Leakage of FD4 to the basolateral compartment” value (non-viable, damaged or wrongly capped segments) was “up to 7 % of the dose” and the “Leakage of FD4 to the basolateral compartment” value (viable tissue) was “below 0.3 % of the dose”.
